Test results as given in patent US20210379153A1, “COMBINATION THERAPIES COMPRISING SIRP ALPHA-BASED CHIMERIC PROTEINS” (Shattuck Labs, Inc., priority 2018, published 2021).

System: MCF7 (low Her2-expressing breast cancer cell line)
Test: Macrophage engulfment of MCF7 cells
Type: cell-based, human
Conditions: monotherapy
Description: In particular, EGFR+ melanoma (A431) cells and lung adenocarcinoma (HCC827) cells, EGFR− chronic myeloid leukemia (K562) cells, and HER2+ breast cancer (HCC1954HER2 HI and MCF7HER2 LOW) cells were used to facilitate combinations with an anti-EGFR antibody (cetuximab) and an anti-HER2 antibody (trastuzumab).

## trastuzumab: anti-Her2 antibody [reference compound]
  phagocytosis: did not induce phagocytosis
